Values quoted from earlier work, collected in patent publication US20050032827A1, “Sigma ligands for neuronal regeneration and functional recovery” (priority 2003, published 2005).

The chains behind the UniProt entries cited, without tags or fusion partners.
UniProt Q99720, whole entry: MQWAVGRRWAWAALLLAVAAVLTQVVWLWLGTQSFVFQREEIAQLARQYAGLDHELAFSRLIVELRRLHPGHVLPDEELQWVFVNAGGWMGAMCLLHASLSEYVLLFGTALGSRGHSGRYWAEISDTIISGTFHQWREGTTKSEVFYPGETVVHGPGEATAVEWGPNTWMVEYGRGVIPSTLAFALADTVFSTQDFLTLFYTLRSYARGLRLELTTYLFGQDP

Target: sigma-1 site (Homo sapiens, UniProt Q99720)
Settings: (+) isomers of benzomorphan opiates; Hellewell and Bowen (1990); cited from earlier work

(+)SKF 10,047
affinity for the sigma-1 site compared to the sigma-2 site: nearly two orders of magnitude higher affinity for the sigma-1 site
